Assay results: publication PMC9780223

Molecular target: purified recombinant PAPP-A free of STC2 (apo PAPP-A) (human) (UniProt Q13219)
Assay: MST
Settings: natural protein

recombinant STC1 (stanniocalcin-1) (from UniProt P52823 34-247)
Kd: 330 nM
